The results in this text go back to patent US20100267743A1, “3-(PHENOXYPYRROLIDIN-3-YL-METHYL)HETEROARYL, 3-(PHENYLPYRROLIDIN-3-YLMETHOXY)HETEROARYL, AND 3-(HETEROARYLPYRROLIDIN-3-YLMETHOXY)HETEROARYL COMPOUNDS” (priority 2009, published 2010).

Chains of the proteins cited; added tags and fusions are not shown.
UniProt P31645, whole entry: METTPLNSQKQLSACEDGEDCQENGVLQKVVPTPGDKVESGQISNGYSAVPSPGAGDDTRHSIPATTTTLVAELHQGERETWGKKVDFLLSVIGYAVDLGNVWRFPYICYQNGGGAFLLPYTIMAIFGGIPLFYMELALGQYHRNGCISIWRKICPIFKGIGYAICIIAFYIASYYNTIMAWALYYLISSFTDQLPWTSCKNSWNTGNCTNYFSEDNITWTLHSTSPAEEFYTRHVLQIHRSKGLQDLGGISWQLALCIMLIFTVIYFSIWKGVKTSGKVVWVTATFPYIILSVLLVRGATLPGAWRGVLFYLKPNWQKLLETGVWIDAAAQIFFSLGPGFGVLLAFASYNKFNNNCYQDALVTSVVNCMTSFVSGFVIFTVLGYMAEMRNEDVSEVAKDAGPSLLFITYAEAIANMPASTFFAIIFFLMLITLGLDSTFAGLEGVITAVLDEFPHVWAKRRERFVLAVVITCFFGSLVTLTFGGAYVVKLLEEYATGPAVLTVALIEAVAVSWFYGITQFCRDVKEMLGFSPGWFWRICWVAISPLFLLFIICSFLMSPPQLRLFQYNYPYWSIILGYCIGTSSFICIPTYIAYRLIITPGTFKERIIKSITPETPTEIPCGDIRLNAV
UniProt P23975, whole entry: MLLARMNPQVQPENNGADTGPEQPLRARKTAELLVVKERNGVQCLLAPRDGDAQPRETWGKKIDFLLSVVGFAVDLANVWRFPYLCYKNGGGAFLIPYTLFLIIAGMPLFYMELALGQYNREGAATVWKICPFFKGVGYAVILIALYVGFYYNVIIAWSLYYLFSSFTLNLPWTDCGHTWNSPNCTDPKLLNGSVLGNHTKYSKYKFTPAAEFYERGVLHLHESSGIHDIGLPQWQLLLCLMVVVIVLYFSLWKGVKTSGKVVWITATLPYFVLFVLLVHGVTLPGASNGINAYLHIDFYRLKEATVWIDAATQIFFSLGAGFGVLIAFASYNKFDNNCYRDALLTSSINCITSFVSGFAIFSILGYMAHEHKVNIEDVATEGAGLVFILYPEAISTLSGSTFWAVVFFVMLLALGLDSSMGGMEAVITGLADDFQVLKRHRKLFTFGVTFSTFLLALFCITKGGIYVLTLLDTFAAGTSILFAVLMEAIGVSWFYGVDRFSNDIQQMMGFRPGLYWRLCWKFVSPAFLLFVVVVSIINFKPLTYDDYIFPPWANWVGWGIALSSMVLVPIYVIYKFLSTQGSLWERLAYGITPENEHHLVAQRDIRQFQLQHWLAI

One assay concerns the target SERT (Homo sapiens, UniProt P31645). Description: hSERT radioligand binding assay (3H-citalopram). The note with it: hSERT membranes (HEK-293), 1.0 nM 3H-citalopram; tested form: TFA.
The next assay concerns the target NET (Homo sapiens, UniProt P23975). The experiment in a line: hNET radioligand binding assay (3H-nisoxetine). The settings on record: hNET membranes (HEK-293), 1.0 nM 3H-nisoxetine; tested form: TFA.

For the molecule `Brc1ccc(O[C@H](c2ccccc2)[C@@H]2CCNC2)nc1`, the “SERT pKi” value at SERT is recorded as “≧7.0”. Further, the “NET pKi” value at NET is “≧5.0”.

For `COc1cc(Br)cnc1O[C@@H](c1ccccc1)[C@H]1CCNC1`, on SERT, the “SERT pKi” value was “≧7.0”. Also, the “NET pKi” value on NET is given as “≧7.0”.

Regarding `Clc1cncc(C(Oc2cccc3ccccc23)C2CCNC2)c1` (centres unmarked), the “SERT pKi” value on SERT is “≧7.0”. In addition, the “NET pKi” value at NET was “≧7.0”.

As for `Fc1ncccc1O[C@H](c1ccccc1)[C@@H]1CCNC1`, the “SERT pKi” value on SERT is “≧7.0”. In addition, the “NET pKi” value at NET was “≧5.0”.

Turning to `Fc1cc(Cl)cc(Cl)c1O[C@@H](c1ncco1)[C@H]1CCNC1`, the “SERT pKi” value on SERT is on record as “≧7.0”. The “NET pKi” value at NET is reported as “≧7.0”.

For `Fc1cc(Cl)c(O[C@@H](c2ncco2)[C@H]2CCNC2)c(Cl)c1`, at SERT, the “SERT pKi” value is given as “≧7.0”. The “NET pKi” value on NET is given as “≧5.0”.

Turning to `Clc1ccc(O[C@H](c2ccccc2)[C@@H]2CCNC2)c(Cl)n1`, the “SERT pKi” value on SERT is listed as “≧7.0”. The “NET pKi” value on NET was “≧5.0”.

Consider `Clc1ccc(O[C@@H](c2ncco2)[C@H]2CCNC2)c(Cl)c1`, for which the “SERT pKi” value at SERT is on record as “≧7.0”. For the same molecule, at NET, the “NET pKi” value is recorded as “≧7.0”.

Take `Clc1cc(Cl)cc(O[C@@H](c2ncco2)[C@H]2CCNC2)c1`: the “SERT pKi” value on SERT was “≧7.0”. Further, at NET, the “NET pKi” value is recorded as “≧7.0”.

`Clc1cc(Cl)cc(O[C@@H](c2cnccn2)[C@H]2CCNC2)c1`: the “SERT pKi” value at SERT is listed as “≧7.0”. For the same molecule, the “NET pKi” value on NET is on record as “≧7.0”.

`Clc1ccc(O[C@@H](c2ccccc2)[C@H]2CCNC2)nc1`: the “SERT pKi” value on SERT was “≧7.0”. The “NET pKi” value at NET is “≧7.0”.

Take `Fc1cc(O[C@H](c2ccccc2)[C@@H]2CCNC2)ccn1`: the “SERT pKi” value on SERT was “≧7.0”. On NET, the “NET pKi” value is given as “≧5.0”.

As to `Fc1cc(F)nc(O[C@@H](c2ccccc2)[C@H]2CCNC2)c1`, the “SERT pKi” value on SERT is reported as “≧7.0”. The “NET pKi” value on NET is “≧5.0”.

For the molecule `CC(C)Oc1ncccc1O[C@H](c1ccccc1)[C@@H]1CCNC1`, the “SERT pKi” value at SERT is “≧5.0”. In addition, at NET, the “NET pKi” value is reported as “≧7.0”.

In the case of `N#Cc1cc(O[C@@H](c2ccccc2)[C@H]2CCNC2)ccn1`, at SERT, the “SERT pKi” value is “≧5.0”. For the same molecule, the “NET pKi” value on NET is “≧5.0”.

As for `FC(F)(F)COc1ncccc1O[C@H](c1ccccc1)[C@@H]1CCNC1`, on SERT, the “SERT pKi” value is “≧7.0”. For the same molecule, the “NET pKi” value at NET is “≧7.0”.

With `CC(C)Oc1ncccc1O[C@@H](c1ccccc1)[C@H]1CCNC1`, the “SERT pKi” value at SERT is recorded as “≧5.0”. Moreover, the “NET pKi” value at NET is “≧7.0”.

Consider `Cc1ccc(O[C@@H](c2ncco2)[C@H]2CCNC2)c(Cl)c1`, for which the “SERT pKi” value at SERT is on record as “≧7.0”. The “NET pKi” value on NET is given as “≧7.0”.

With `c1ccc([C@@H](Oc2cccnc2OC2CCCC2)[C@@H]2CCNC2)cc1`, the “SERT pKi” value at SERT is reported as “≧7.0”. Also, the “NET pKi” value on NET was “≧7.0”.

For the molecule `Fc1ccc(F)c(O[C@@H](c2ncco2)[C@H]2CCNC2)c1Cl`, the “SERT pKi” value at SERT is given as “≧5.0”. Also, on NET, the “NET pKi” value is on record as “≧7.0”.

In the case of `COc1ncccc1O[C@H](c1ccccc1)[C@@H]1CCNC1`, the “SERT pKi” value on SERT is recorded as “≧7.0”. In addition, on NET, the “NET pKi” value is reported as “≧7.0”.

Take `Clc1ccc(O[C@@H](c2ncco2)[C@H]2CCNC2)c(C2CCCCC2)c1`: the “SERT pKi” value at SERT is given as “≧7.0”. On NET, the “NET pKi” value is “≧7.0”.

Take `Cc1cccnc1O[C@H](c1ccccc1)[C@@H]1CCNC1`: the “SERT pKi” value on SERT is reported as “≧5.0”. Moreover, the “NET pKi” value at NET was “≧7.0”.

Take `Fc1ccc(O[C@@H](c2ncco2)[C@H]2CCNC2)c(F)c1`: the “SERT pKi” value at SERT is reported as “≧5.0”. The “NET pKi” value on NET is “≧7.0”.

Consider `CN(C)c1c(F)c(F)nc(O[C@@H](c2ccccc2)[C@H]2CCNC2)c1F`, for which the “SERT pKi” value at SERT is reported as “≧7.0”. The “NET pKi” value on NET is “≧5.0”.

For the molecule `Fc1cccnc1O[C@@H](c1ccccc1)[C@H]1CCNC1`, the “SERT pKi” value on SERT was “≧7.0”. Moreover, the “NET pKi” value at NET is recorded as “≧5.0”.

Consider `Cc1cc(Cl)cc(Cl)c1O[C@@H](c1ncco1)[C@H]1CCNC1`, for which the “SERT pKi” value on SERT is recorded as “≧7.0”. Also, the “NET pKi” value at NET is listed as “≧5.0”.

Consider `Clc1cnc(O[C@H](c2ccccc2)[C@@H]2CCNC2)c(Cl)c1`, for which the “SERT pKi” value on SERT is “≧7.0”. Moreover, the “NET pKi” value on NET was “≧7.0”.

Regarding `COc1ccc(O[C@H](c2ccccc2)[C@@H]2CCNC2)cn1`, on SERT, the “SERT pKi” value is on record as “≧7.0”. Moreover, the “NET pKi” value at NET was “≧5.0”.

For `N#Cc1c(F)c(F)nc(O[C@@H](c2ccccc2)[C@H]2CCNC2)c1F`, the “SERT pKi” value on SERT is “≧5.0”. In addition, on NET, the “NET pKi” value was “≧7.0”.

Regarding `Clc1cncc(C(Oc2ccc3ccccc3c2)C2CCNC2)c1` (centres unmarked), at SERT, the “SERT pKi” value is recorded as “≧7.0”. In addition, the “NET pKi” value on NET is on record as “≧7.0”.
